Data from patent publication US8039432B2, “Method of treatment of diabetes and/or obesity with reduced nausea side effect” (Conjuchem, LLC, priority 2005, dated 2011).

System: male Sprague-Dawley rats
Assay: Conditioned taste aversion test (CTA)
Description: One model for studying gastrointestinal malaise in response to administration of a test agent is the conditioned taste aversion test (Peeters and Broekkamp, 1994, J. Steroid Biochem. Mol. Biol., 49:417-427). Conditioned taste aversion is a form of associative learning in which animals learn to avoid flavors of substances where initial ingestion of the substance was followed by illness. In conditioned taste aversion, animals learn to associate a flavor, or conditioned stimulus, with the aversive effects of an administered agent, or unconditioned stimulus. Following conditioned stimulus—unconditioned stimulus pairings, animals reduce their consumption of the conditioned stimulus, and/or show a preference for other tastes when later presented with the conditioned flavor. […] The conditioned stimulus was 0.1% saccharin flavored water with high palatability. […]
Following injection, all groups were given food ad libitum and 2 bottles of water. At 72 h and 96 h post dose, a choice of tap water or 0.1% saccharin solution (conditioned stimulus) was offered, and intake of both solutions was measured for 12 hours. Mean saccharin preference ratios, representing the percentage of saccharin solution consumed relative to total liquid intake, were determined for each group (FIGS. 1 and 2).

## exendin-4(1-39) Lys^40 (ε-AEEA-MPA)-NH2 conjugated with albumin [CJC-1134-PC]
0.5 nmol/kg SC, 12 h period beginning 72 h post dose
  saccharin solution consumption as share of total liquid intake (saccharin preference ratio): over 80%
rats, compared to vehicle control
  conditioned taste aversion (saccharin preference ratio compared to vehicle control): None of the three CJC-1134-PC doses resulted in conditioned taste aversion
